For the assay, the system named is biotinylated monoclonal antibody specific for DAEFRH (natural N-terminal Aβ42 sequence). Description: Inhibition assay for additional mimotopes (competition ELISA), Example 4 (FIGS. 4 and 5). It counts as binding, mice. Here is the method:
FIGS. 4 and 5 describe the results of inhibition assays performed with mimotope peptides included in and obtained from the 5 libraries (as described). The mimotope peptides compete with the original epitope for recognition by the monoclonal antibody. Original epitope and mimotope peptides contain an additional C at the C-terminus (position 7) for coupling to a protein carrier (if desired).
After blocking with PBS/BSA 1% (200 μl/well, 12 h, 4° C.), the plates are washed 3× times with PBS/Tween. Then, biotinylated monoclonal antibody (1:2000, 50 μl/well) and peptides (50 μl/well) at different concentrations are added for 20 min. at 37° C. The plates are washed 3× times with PBS/Tween and are incubated with horseradish peroxidase (HRP)-labeled streptavidin (100 μl/well, 30 min, RT). The plates are washed 5× times with PBS/Tween and are incubated with ABTS H2O2 (0.1% w/v, 10 to 45 min) and the reaction is stopped with citric acid followed by photometric evaluation (wavelength 405 nm).

1 molecule from patent US7732568B2, “Methods for preventing and treating Alzheimer's disease” (AFFIRIS Forschungs-und Entwicklungs GmbH, priority 2003, dated 2010) can be followed below.

Structures are written as SMILES.

For the molecule `CC(C)C[C@H](NC(=O)[C@H](CCC(=O)O)NC(=O)[C@H](CCCCN)NC(=O)[C@@H](N)CC(=O)O)C(=O)N[C@@H](CCCNC(=N)N)C(=O)N[C@@H](CS)C(=O)O` [Peptide 1238, DKELR], the “inhibition of binding of the monoclonal antibody to the original epitope (in words)” value (FIGS. 4 and 5) was “block epitope recognition”. For the setting “summary grade: strong, intermediate, weak, none”, the “Inhibitory capacity of mimotopes (Table 2)” value was “strong”.
